The values below are quoted from earlier work in publication PMC5249262.

This data set has as its target laminin-1 (Mus musculus) (UniProt P19137).

Take “67-kDa laminin receptor (from UniProt P14206)”: the Kd was 2 nM.
